Experimental data reported in patent US20220280663A1, “CELLULAR TARGETED PHARMACEUTICALLY ACTIVE SUBSTANCE OR LABEL DELIVERY SYSTEM” (CELLIS AG, priority 2016, published 2022).

System: metastatic 4T1 cancer
Details: mouse, in vivo, iv
Source text: This step should be repeated until no radioactivity is detected in the supernatant.

Substance: ^18F fluorodeoxyglucose [^18F-FDG]
- PET signal: lower PET signal
